# Values quoted from earlier work as cited in PMC11329750 (Clinical and Translational Science, 2024).
# Test system: pregnane X receptor (PXR)
# Settings: cited from earlier work
compound,measurement,value
CO[C@H]1/C=C/O[C@@]2(C)Oc3c(C)c(O)c4c(O)c(c(/C=N/N5CCN(C)CC5)c(O)c4c3C2=O)NC(=O)/C(C)=C\C=C\[C@H](C)[C@H](O)[C@@H](C)[C@@H](O)[C@@H](C)[C@H](OC(C)=O)[C@@H]1C [rifampin],binding to PXR weaker than hyperforin,more than 20 fold
